Measurements taken from BindingDB's records for doi:10.1021/cb4002602 (National University of Singapore, 2013).

Target: Protein disulfide-isomerase (Bos taurus) (UniProt P05307)
Test: The assay was carried out in 384-well plates according to literature procedures [46]. Each well contained 100mM sodium phosphate and 0.2mM EDTA pH 7.0. 10ng PDI was pre-incubated with various concentration of probes (4% DMSO) in 20uL buffer for 30 min at 37 degrees Celsius, followed by the addition of insulin (0.16mM final concentration) and DDT (1mM

- IC50: 108 µM
SMILES: C#CCOC(=O)C1(C)c2[nH]c3ccccc3c2CCN1C(=O)CCl (stereo unspecified) [16F16A]
